Assay: Inhibitory concentration was determined against delta-opioid receptor using [3H]- DPDPE radioligand

## Oc1ccc2c3c1O[C@H]1[C@@H](O)CC[C@@]4(O)[C@@H](C2)N(CC2CC2)CC[C@]314 [Naltrexone-6-alpha-ol]
  IC50: 32 nM
